The subject of one test is colon cancer patients. In words: Relationship between cetuximab reactivity and RON activity in colon cancer patients. It counts as in vivo, human. To be noted: colon cancer patients (double positive) prescribed with cetuximab; FIG. 8. Here is the method:
In order to analyze the RON activity, after a protein was extracted from a cell line or a colon cancer patient's tissue (by using a RIPA buffer), activity was verified by using a phospho-RON antibody (Mybiosource, MBS462024, dilution factor 1:1000) in 20 μg of the cells and 50 μg of the colon cancer patient's tissue.
Further, after immunoprecipitation was performed with the RON antibody (santa cruz; sc-322, Lot#G1514, 2 μg, incubation of 2 days) (by using 300 μg of the cell line and the colon cancer patient's tissue), phosphorylation was verified by a phospho-tyrosine antibody (Cell signaling; 9411, dilution factor 1:1000). In order to verify RONΔ155 and RONΔ160 (alternative splicing form) which were the RON active forms, RNA was extracted from the colon cancer cell line or the colon cancer patient's tissue with a trizol reagent.
The inventors analyzed a relationship between cetuximab reactivity and RON activity.

Test [1] deals with KM12C colon cancer cell line. The following applies: KRAS, NRAS, BRAF wild type, Todd M. et al, PLOS 2014, FIG. 9; cited from earlier work.
For test [2], the system named is KM12C colon cancer cell line. In words: Cell death by trypan blue cell counting. It counts as cell-based, human. How it is done:
(§1) After 5, 10, and 20 μg/ml of cetuximab (Merck & Co., Inc, NJ, USA) were treated for 48 hours in CaCo2 and LIM1215 colon cancer cell lines in which the RON was not activated and a KM12C cell line in which the RON was activated, a cell solution was collected to perform trypan blue counting (FIG. 3A).
KM12C colon cancer cell line in which the RON was activated was treated with RON siRNA for 48 hours, was treated with 20 μg/ml of cetuximab for 48 hours, and then the cell solution was collected to perform trypan blue counting. […]
(§2) Accordingly, in order to analyze the cell death degree according to the RON activity when cetuximab was treated, as described above, in order to verify the cetuximab reactivity in the CaCo-2 colon cancer cell line and the LIM1215 cell line which had KRAS, NRAS, and BRAF wild type genes and had susceptibility to cetuximab and in which the RON was not activated, and the KM12C colon cancer cell line in which the RON was activated and which had the resistance to cetuximab, the cell death was analyzed by trypan blue cell counting.
The inventors analyzed the cell death by trypan blue cell counting by treating cetuximab after artificially inhibiting the RON by the siRNA technique in the KM12C colon cancer cell line having the resistance to cetuximab in which the RON was activated. […]

In test [3] the test system is p-ERK protein, cleaved caspase-3. In words: Sub-signaling mechanism by western blot. It counts as cell-based, human. The following applies: KM12C, RON expression inhibited by siRNA and cetuximab treated; FIG. 5D. Here is the method:
(§3) In order to perform the western blot, a protein separated from each cell was separated through SDS-PAGE and transferred to polyscreen membranes (New England Nuclear, Boston, Mass., USA), reacted for 12 hours at 4° C. by using various antibodies (anti-phospho RON (MyBioSource, San Diego, Calif., USA), anti-phospho Tyrosine, anti-EGFR, anti-phospho EGFR (Cell signaling Technology, Beverly, Mass., USA), anti-RON, and anti-r-tubulin (Santa Cruz Biotechnology), and then washed with a 1×TBS-T buffer solution for 10 minutes three times. A suitable anti-rabbit-HRP or anti-mouse-HRP secondary antibody reacted for 2 hours at room temperature and was washed with the 1×TB S-T buffer solution for 10 minutes three times to verify the expression of the protein by using an ECL solution (Amersham, Buckinghamshire, UK).
The inventors observed a sub-signaling mechanism through western blot by treating cetuximab after artificially inhibiting the RON by the siRNA technique in the KM12C colon cancer cell line having the resistance to cetuximab in which the RON was activated.
For orientation: Immunoblotting shows a protein as a band on a membrane.

The test system of test [4] is SW48 colon cancer cell line. In words: Cell death for cetuximab after overexpressing RON active forms. The following applies: SW48 overexpressing Δ160 and Δ155; FIG. 5F. It counts as cell-based, human. From the text: (§4) The inventors observed the cell death for cetuximab after overexpressing Δ160 and Δ155 as the active forms of the RON in the CaCo-2 and SW48 colon cancer cell lines having the susceptibility to cetuximab in which the RON was not activated.

Test [5] has as its system CaCo-2 colon cancer cell line. The following applies: KRAS, NRAS, BRAF wild type, Giovanni B. et al, PLOS 2012; cited from earlier work.
The test system of test [6] is RON knockout KM12C colon cancer cell line. Description: Cell growth by colony formation method in RON knockout isogenic cell line. It counts as cell-based, human. The following applies: KM12C RON knockout vs parent cell line; FIG. 5I. From the text: The inventors observed the cell growth for cetuximab by a colony formation method by using a cell line in which the RON gene was knocked-out by using the CRISPR/Cas9 method in the KM12C colon cancer cell line having resistance to cetuximab in which the RON was activated.

For a further test, the system named is EGFR. Description: EGFR activation degree by western blot. It counts as cell-based, human. To be noted: FIG. 5A. Here is the method: as §3
Accordingly, the activation degree of the EGFR was observed by western blot by treating cetuximab for each time after artificially inhibiting the RON by an siRNA technique in the KM12C colon cancer cell line which had KRAS, NRAS, and BRAF wild type genes, had resistance to cetuximab and in which the RON was activated, as described above, in order to analyze the activity inhibition of the EGFR through the RON activity inhibition and the EGFR activity inhibition for cetuximab.

The next test has as its system LIM1215 cell line. Description: Cell death by trypan blue cell counting. It counts as cell-based, human. To be noted: LIM1215, RON not activated; 5, 10, 20 μg/ml, 48 hours; FIG. 5B. Here is the method:
as §1, §2

Test [7] concerns RON knockout KM12C colon cancer cell line. Description: Cell death in RON knockout isogenic cell line. It counts as cell-based, human. To be noted: KM12C RON knockout (CRISPR/Cas9) #1 clone vs parent cell line; cetuximab for each concentration; FIG. 5H. From the text:
The inventors observed the cell death by treating cetuximab for each concentration in #1 clone with good RON knockout efficiency, in order to analyze the cell death and the cell growth for cetuximab by preparing a cell line in which the RON gene was knockout by using a CRISPR/Cas9 method in the KM12C colon cancer cell line having resistance to cetuximab in which the RON was activated.

The subject of test [8] is CaCo-2 colon cancer cell line. In words: Cell growth by colony formation method. It counts as cell-based, human. To be noted: FIG. 5G. From the text:
The inventors observed the cell growth for cetuximab by a colony formation method by overexpressing the Δ160 variant as the active form of the RON in the CaCo-2 colon cancer cell line having the susceptibility to cetuximab in which the RON was not activated.

Test [9] concerns RON knockout KM12C xenograft. Description: Tumor inhibition in in vivo xenograft model using RON knockout isogenic cell line. The following applies: RON knockout xenograft mouse vs parent cell line; FIG. 6. From the text: The inventors observed the tumor inhibition effect by cetuximab in an in vivo xenograft model by using a cell line in which the RON gene was knocked-out by using the CRISPR/Cas9 method in the KM12C colon cancer cell line having resistance to cetuximab in which the RON was activated.

Test [10] relates to CaCo-2 colon cancer cell line. Description: Cell death by trypan blue cell counting. It counts as cell-based, human. How it is done: as §1, §2, §4

Consider cetuximab, for which the “susceptibility to cetuximab according to the RON activity” value with colon cancer patients was “different susceptibility”. Besides, the figures for the “response of cell line to cetuximab” value in [1] and in test [5] were “resistance” and “susceptibility”, respectively. Besides, the “cell death by cetuximab” value in test [2] (RON activated, 5, 10, 20 μg/ml, 48 hours, FIG. 5B) is “not observed”; in the test on LIM1215 cell line it was “observed”; in test [10] (CaCo-2, RON not activated, 5, 10, 20 μg/ml, 48 hours, FIG. 5B), “observed”. Besides, in [2] (RON siRNA 48 hours, then 20 μg/ml cetuximab 48 hours, FIG. 5C), the “cell death by cetuximab after inhibiting RON expression” value is recorded as “cell death was increased”. Besides, the “cleaved caspase-3 (apoptosis marker protein)” value in test [3] is “increased”. Further, the p-ERK protein entry in [3] is given as “reduced”. In addition, the “cell death by cetuximab after overexpressing RON active forms” value in [4] is “cell death was inhibited”; in test [10] (CaCo-2 overexpressing Δ160 and Δ155, FIG. 5F), “cell death was inhibited”. Moreover, the number of colonies entry in test [6] is given as “decreased”; in test [8] (CaCo-2 overexpressing Δ160 variant of RON), “not almost reduced”; in [8] (parent CaCo-2 cell line), “reduced”. Besides, the “activity of EGFR over time on cetuximab treatment” value in the test on EGFR (KM12C without inhibiting the RON) is “reduced and then increased over the time”; with EGFR (KM12C, RON inhibited with siRNA), “rapidly reduced and then not increase”. In addition, the “cell death by cetuximab in RON knockout cell line” value in test [7] is “cell death was increased”. For the same substance, the “size of the tumor” value in [9] was “significantly reduced”.

Source of the values: patent publication US11008622B2, “Biomarker for predicting sensitivity to EGFR-targeting agent, and use thereof” (THE ASAN FOUNDATION, priority 2014, dated 2021).
